Screening data (PubChem)
miR-21 reporter = miR-21 reporter, rising signal | HeLa miR-21 FLuc reporter, luciferase, 48 h | Potency, µM (doses to about 38.3 µM) | 340,000 tested, under 10 active | AID 2288; active = well fitted rising curve with a large enough effect; inconclusive = small, poorly fitted or top-dose-only effect; inactive = no such curve, though single readings can be large or run the other way;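 note: miR-21 action dims this reporter so a rising signal means less miR-21 action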
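Luminescence from a firefly luciferase reporter carrying a miR-21 binding site downstream, stably expressed under a CMV promoter in HeLa cells that make miR-21 endogenously, reports miRNA modulation after 48 h compound exposure up to approximately 40uM final.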
PTHR1 ag = activates the human parathyroid hormone receptor PTHR1; Q03431; HEK293 GP2 PTHR1 cells, GloSensor cAMP luminescence, 1 h; Potency, µM (doses to about 115 µM), hits mostly activators; 0.075% of 410,000 active; also: nearly all actives have a fitted effect of over 55% in size
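HEK-293-derived GP2 cells expressing PTHR1 and a GloSensor cAMP reporter, 3,000/well, plated overnight, given luciferin plus IBMX (each 0.5 mM as added) for 1 h at 37 °C, then compound for 1 h at 37 °C. Luminescence was read after 15 min at room temperature.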
Giardia kill = Giardia lamblia killing; Giardia lamblia trophozoite viability; activity change, % at 7.66 µM, hits read low; 0.15% of 340,000 active; in the data active = activity change below about -80%; inconclusive = between about -30% and that limit;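 also: parasites exposed to compound for two days anaerobically before the ATP read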
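Each well holds 100 Giardia trophozoites and compound. After two days (48 hrs) at 37 deg C in anaerobic conditions, ATP is quantified by luminescence.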
12-LOX inh = blocks human arachidonate 12S-lipoxygenase; purified 12hLO, xylenol orange hydroperoxide absorbance; 1.1% of 580,000 active; AID 1671190; P18054; Potency, µM (highest dose often 108 µM), actives largely listed as inhibitors
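Purified human 12hLO (150 nM final) in 25 mM Hepes, 0.01% Triton X-100, pH 7.0 was preincubated 15 min at room temperature with compound. Then 40 uM arachidonic acid was added, 30 min. Hydroperoxide was read by Fe-XO absorbance ratio 573/405 nm.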
PINK1 modulator = PINK1 expression modulation; PINK1 immunofluorescence, high-content cytometry, 24 h; Potency, µM (top dose mostly 76.6 µM), hits mostly activators; 0.2% of 410,000 active; active = well fitted activation curve with a large enough effect; inconclusive = small, poorly fitted or top-dose-only effect; cell line not stated here; also: nearly all actives have a fitted effect of over 65% in size
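Decision-based qHTS: stable cells, 24 h exposure to five compound concentrations, CCCP as control. Fixed cells stained for PINK1 plus nuclear, mitochondrial and cell markers, cytometer read.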
ERG-DNA inh = inhibitors of human ERG Ets domain-DNA interaction. Potency, µM (titrated, usually from 76.9 µM), hits mostly inhibitors. AID 624246. fluorescence polarization, His-ERG Ets domain / labelled DNA. P11308. 0.028% of 370,000 active; active = well fitted inhibition curve with a large enough effect in the polarisation, with a control signal flat; inconclusive = small, poorly fitted or top-dose-only effect, or effect the other way, or a change in a side signal; inactive = no such curve, though single readings can be large or run the other way; the % refers to the polarisation;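 also: polarization taken with two DNA probes labelled with fluorescein and Texas red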
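His-tagged ERG Ets domain (1 uM in the protein solution; 300mM KCl, 50mM Tris-HCl, 1mM EDTA, 1mM DTT, pH 7.5) received compound, then a probe mix of 5 nM fluorescein-DNA and 100nM Texas-615-DNA. Fluorescence polarization was read for both dyes.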
Numbers stand for hits; n = inactive; u = inconclusive; x = not tested or not shown. This is a sample that favours compounds with a hit; in the whole collection about 1.3% have one here. Unless noted, calls follow the shape of the dose curve; as a rule, active = well fitted curve in the direction sought with a large enough effect; inconclusive = small, poorly fitted or top-dose-only effect, or another doubt; inactive = no such curve, though single readings can be large; an effect the other way counts as inactive or inconclusive.

SMILES	miR-21 reporter	PTHR1 ag	Giardia kill	12-LOX inh	PINK1 modulator	ERG-DNA inh
CC(C)Oc1ccc(C(=O)NC(=S)Nc2ccc(Cl)c(C(=O)O)c2)cc1	n	n	n	10µM	n	n
CC(C)COc1cccc(C(=O)NC(=S)Nc2cccc(NC(=O)c3ccccc3Cl)c2)c1	n	n	n	28µM	n	n
CCCCOc1cccc(C(=O)NC(=S)Nc2cccc(NC(=O)c3ccccc3Cl)c2)c1	n	n	n	11µM	n	n
CC(NC(=O)c1cccs1)C(=O)NCc1ccccn1 (stereo not given)	x	x	x	n	x	x
CCOc1ccc(NC(=O)N2CCCC2C(=O)NCc2ccco2)cc1 (stereo not given)	n	n	n	u	n	n
Cc1oc(-c2nc(C#N)c(NCCN(C)C)o2)cc1S(=O)(=O)N1CCCCC1	x	x	x	n	x	x
Cc1ccccc1CN1CCc2nc(N3CCN(c4ncccn4)CC3)ncc2C1	n	n	x	u	n	n
CC(=NNC(=S)N1CCCCC1)c1cccc(C)n1	x	n	n	n	n	x
CC(=NNC(=S)N1CCCCC1)c1ccccn1	x	n	x	45µM	n	x
COc1ccc(CN2CCCCCC2)cc1Br	n	n	n	1µM	n	n
COc1ccc(CN2CCCCCC2)cc1OC	x	n	n	2µM	n	n
COc1cc(CN2CCCCC2)ccc1OCc1ccccc1	n	n	n	u	n	n
CC1CCCC(N2CCN(Cc3ccc(Cl)cc3)CC2)C1 (stereo not given)	x	x	x	0.79µM	x	x
COc1ccc(CN2CCOCC2)cc1Br	n	n	n	n	n	n
Clc1ccc(CN2CCCCCC2)cc1	n	n	n	0.79µM	n	n
O=C(CN1CC2CC(C1)[C@H]1CCCC(=O)N1C2)NCCCN1CCCC1=O (stereo not given in full)	x	x	x	n	x	x
Clc1ccc(CNC2CCN(Cc3ccccc3)CC2)cc1	n	n	n	8.9µM	n	n
C/C(=N/NC(=O)c1sc(NS(=O)(=O)c2ccccc2)nc1C)c1ccccc1	n	n	n	n	n	n
C=CCn1c(SCC(=O)Nc2ccc(Br)cc2)nc(O)cc1=O	x	n	x	3.2µM	n	x
COc1ccc(-n2c(SCC(=O)Nc3ccccc3)nc(O)cc2=O)cc1	n	n	n	u	n	n
Cc1ccccc1-n1c(SCC(=O)Nc2ccc(Cl)cc2Cl)nc(O)cc1=O	n	n	x	6.3µM	n	n
CCn1c(SCC(=O)Nc2ccc(C)cc2)nc(O)cc1=O	n	n	n	n	n	n
COc1ccc(NC(=O)CSc2nc(O)cc(=O)n2-c2ccc(OC)cc2)cc1	n	n	n	13µM	n	n
COc1ccc(CNC(=O)Cn2c(=O)n3nc(-c4cccc(F)c4)nc3c3ccccc32)cc1OC	n	n	x	n	n	n
CCN(Cc1cccc(S(=O)(=O)O)c1)c1ccc(C(=C2C=CC(=[N+](CC)Cc3cccc(S(=O)(=O)O)c3)C=C2)c2ccc(O)cc2S(=O)(=O)O)cc1	x	x	x	x	n	x
SMILES	miR-21 reporter	PTHR1 ag	Giardia kill	12-LOX inh	PINK1 modulator	ERG-DNA inh
CC1(C)C(=O)NC(=O)N1CC(=O)N[C@H](Cc1ccccn1)C1CC(O)C1 (stereo not given in full)	x	x	x	n	x	x
CCCCN1C(=O)[C@@H]2C[C@@H](O)CN2C2(CN(Cc3cccc(OC(F)(F)F)c3)C2)C1=O	x	x	x	n	x	x
Cc1c(O)ccc2c(CC(=O)N[C@@H](Cc3c[nH]c4ccccc34)C(=O)O)cc(=O)oc12	n	n	n	n	n	n
CC(Oc1cccc(Br)c1)C(=O)NNC(=O)c1ccc2c(c1)NC(=O)CCS2 (stereo not given)	x	x	x	45µM	x	x
COc1cccc(CNC(=O)CCC2CCCN(C(=O)c3cccnc3SC)C2)c1 (stereo not given)	n	n	n	n	n	n
CN(C)CCNC(=O)c1cccc2ccc(-c3ccc(-c4ccccc4)cc3)nc12	x	n	n	40µM	n	n
NC(=O)/C(=C\c1ccncc1)c1cccc2ccccc12	n	n	n	n	n	n
C#CCOCCOCCOCCNc1nc(N2CCN(C(=O)[C@H](CCCCN)n3cc(CC(C)O)nn3)CC2)nc(N2CCN(C(=O)[C@H](CCCCN)n3cc(CC(C)O)nn3)CC2)n1 (stereo not given in full)	x	n	n	13µM	n	n
C#CCOCCOCCOCCNc1nc(N2CCN(C(=O)Cn3cc(CCO)nn3)CC2)nc(N2CCN(C(=O)[C@H](CCCCN)n3cc(CC(C)O)nn3)CC2)n1 (stereo not given in full)	x	n	n	u	n	n
C#CCOCCOCCOCCNc1nc(N2CCOCC2)nc(N2CCN(C(=O)[C@H](CCCCN)n3cc(CCCC)nn3)CC2)n1	x	n	n	35µM	n	n
O=C1NC(=S)N/C1=C/c1cccc([N+](=O)[O-])c1	n	n	n	n	n	n
CN1C(=O)/C(=C/c2cccc([N+](=O)[O-])c2)C(=O)N1c1ccccc1	n	n	u	40µM	n	n
COC(=O)c1ccc(C2NC(C(=O)O)CS2)cc1 (stereo not given)	n	n	n	n	n	n
CCOC(=O)COc1ccc(C2NC(C(=O)O)CS2)cc1 (stereo not given)	n	n	n	32µM	n	n
Cc1ccc(C2=Nc3ccc(Cl)cc3OC2)cc1	x	x	x	22µM	x	x
